Assay results as given in ChEMBL document CHEMBL6127080, “Design, synthesis and biological evaluation of novel diphenylamine analogues as NLRP3 inflammasome inhibitors” (Bioorg Med Chem, 2024).
Active and inactive are the calls of the source. No cut-off for these calls is given here.

Chains of the proteins cited; added tags and fusions are not shown.
UniProt Q8R4B8, whole entry: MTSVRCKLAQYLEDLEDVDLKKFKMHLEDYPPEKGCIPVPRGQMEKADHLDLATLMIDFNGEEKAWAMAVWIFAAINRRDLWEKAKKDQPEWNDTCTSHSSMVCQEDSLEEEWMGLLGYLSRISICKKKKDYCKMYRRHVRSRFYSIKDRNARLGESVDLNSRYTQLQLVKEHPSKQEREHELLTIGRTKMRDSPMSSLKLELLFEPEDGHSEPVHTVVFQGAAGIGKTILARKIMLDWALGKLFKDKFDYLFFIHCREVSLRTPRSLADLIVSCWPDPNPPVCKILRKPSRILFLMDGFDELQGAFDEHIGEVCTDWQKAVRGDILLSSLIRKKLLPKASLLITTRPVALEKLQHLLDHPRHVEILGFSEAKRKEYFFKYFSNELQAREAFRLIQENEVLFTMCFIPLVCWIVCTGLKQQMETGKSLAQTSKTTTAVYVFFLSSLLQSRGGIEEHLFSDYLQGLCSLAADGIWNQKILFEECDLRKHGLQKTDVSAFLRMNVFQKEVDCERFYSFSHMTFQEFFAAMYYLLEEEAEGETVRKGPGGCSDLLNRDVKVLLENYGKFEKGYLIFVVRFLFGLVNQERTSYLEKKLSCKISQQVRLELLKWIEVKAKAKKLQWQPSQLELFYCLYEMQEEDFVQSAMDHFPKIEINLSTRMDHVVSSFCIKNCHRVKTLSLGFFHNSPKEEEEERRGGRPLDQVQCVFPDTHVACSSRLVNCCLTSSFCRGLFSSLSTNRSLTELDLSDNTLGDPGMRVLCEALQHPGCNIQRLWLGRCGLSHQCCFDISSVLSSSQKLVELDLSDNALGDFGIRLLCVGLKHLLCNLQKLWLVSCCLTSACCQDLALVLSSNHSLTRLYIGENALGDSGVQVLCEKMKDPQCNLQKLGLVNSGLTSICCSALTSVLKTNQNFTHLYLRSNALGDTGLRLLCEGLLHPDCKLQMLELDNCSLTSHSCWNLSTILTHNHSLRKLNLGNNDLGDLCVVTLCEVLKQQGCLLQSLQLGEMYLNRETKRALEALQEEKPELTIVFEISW

Tests used:
Format in all cases: cell-based
[1] = target: NACHT, LRR and PYD domains-containing protein 3 (Mus musculus) (UniProt Q8R4B8); assay: Inhibition of NLRP3 inflammasome in mouse J774.A1 cells assessed as reduction in LPS/ATP induced caspase-1 p20 level pretreated with LPS for 4.5 hrs prior to compound addition for 2.5 hrs followed by ATP addition for 30 mins by Western blotting analysis; settings: dose 3-30 µM, time 7.5 hrs
[2] = target: T1, NACHT, LRR and PYD domains-containing protein 4E (Mus musculus) (UniProt Q66X19); assay: Inhibition of NLRP4 inflammasome in mouse J774.A1 cells assessed as reduction in LPS/flagellin induced IL-1beta level at 10 uM pretreated with LPS for 1 hr followed by flagellin addition and measured after 6 hrs by ELISA; settings: time 7.0 hrs
T1 sequence (whole entry): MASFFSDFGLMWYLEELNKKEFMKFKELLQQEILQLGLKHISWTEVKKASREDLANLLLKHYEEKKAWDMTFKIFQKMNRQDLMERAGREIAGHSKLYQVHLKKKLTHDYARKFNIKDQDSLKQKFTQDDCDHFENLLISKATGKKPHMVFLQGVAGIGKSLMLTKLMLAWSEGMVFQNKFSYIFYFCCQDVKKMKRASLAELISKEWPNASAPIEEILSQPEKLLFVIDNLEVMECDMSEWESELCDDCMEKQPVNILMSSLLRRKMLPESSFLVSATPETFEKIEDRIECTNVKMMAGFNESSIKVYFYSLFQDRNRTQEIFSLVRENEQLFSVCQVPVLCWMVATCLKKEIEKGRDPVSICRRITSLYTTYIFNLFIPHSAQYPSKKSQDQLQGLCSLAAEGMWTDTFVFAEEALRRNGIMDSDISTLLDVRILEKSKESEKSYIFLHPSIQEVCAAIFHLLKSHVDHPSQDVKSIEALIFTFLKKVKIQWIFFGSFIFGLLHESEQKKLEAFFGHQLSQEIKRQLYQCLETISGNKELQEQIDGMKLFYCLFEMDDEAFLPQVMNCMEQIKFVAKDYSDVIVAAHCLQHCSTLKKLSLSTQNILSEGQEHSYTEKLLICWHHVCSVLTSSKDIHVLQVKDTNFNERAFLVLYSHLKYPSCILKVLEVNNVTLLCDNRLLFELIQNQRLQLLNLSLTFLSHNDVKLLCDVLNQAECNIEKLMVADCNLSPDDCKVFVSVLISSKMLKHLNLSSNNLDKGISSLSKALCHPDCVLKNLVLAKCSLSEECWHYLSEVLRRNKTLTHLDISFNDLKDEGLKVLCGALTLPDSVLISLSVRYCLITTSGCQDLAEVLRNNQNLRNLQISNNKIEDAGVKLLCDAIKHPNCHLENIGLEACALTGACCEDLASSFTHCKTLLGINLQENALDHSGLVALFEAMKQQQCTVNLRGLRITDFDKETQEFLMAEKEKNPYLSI

[3] = target: NACHT, LRR and PYD domains-containing protein 3 (Mus musculus) (UniProt Q8R4B8); assay: Inhibition of NLRP3 inflammasome in mouse J774.A1 cells assessed as reduction in LPS/ATP induced IL-1beta level pretreated with LPS for 4.5 hrs prior to compound addition for 2.5 hrs followed by ATP addition for 30 mins by Western blotting analysis; settings: dose 3-30 µM, time 7.5 hrs

Which inhibition [1] does the source give for `CCC(=O)Nc1ccc(-c2ccccc2N(Cc2cc(Cl)ccc2OCCOC)C(=O)c2ccc(F)cc2)cc1` here?
Its inhibition is “Dose-Dependent Effect”.

What about the inhibition [2] of the same molecule?
The inhibition was “inactive”.

And the inhibition [3]?
The inhibition was “Dose-Dependent Effect”.
